What was measured:
Assay type in all cases: functional, organism-based
Acinetobacter baumannii [1] = experiment: Effect on morphological changes in colistin-susceptible Acinetobacter baumannii ATCC 19606 assessed as change in width of cellular dimension at mid-log phase at 0.5 ug/ml after 20 mins by atomic force microscopic analysis
Acinetobacter baumannii [2] = experiment: Effect on morphological changes in colistin-susceptible Acinetobacter baumannii ATCC 19606 assessed as change in width of cellular dimension at mid-log phase at 4 ug/ml after 20 mins by atomic force microscopic analysis
Acinetobacter baumannii [3] = experiment: Effect on morphological changes in colistin-susceptible Acinetobacter baumannii ATCC 19606 assessed as change in width of cellular dimension at mid-log phase at 32 ug/ml after 20 mins by atomic force microscopic analysis
Acinetobacter baumannii [4] = experiment: Effect on morphological changes in colistin-susceptible Acinetobacter baumannii ATCC 19606 assessed as change in length of cellular dimension at mid-log phase at 0.5 ug/ml after 20 mins by atomic force microscopic analysis
Acinetobacter baumannii [5] = experiment: Effect on morphological changes in colistin-susceptible Acinetobacter baumannii ATCC 19606 assessed as change in length of cellular dimension at mid-log phase at 4 ug/ml after 20 mins by atomic force microscopic analysis
Acinetobacter baumannii [6] = experiment: Effect on morphological changes in colistin-susceptible Acinetobacter baumannii ATCC 19606 assessed as change in length of cellular dimension at mid-log phase at 32 ug/ml after 20 mins by atomic force microscopic analysis
Acinetobacter baumannii [7] = experiment: Effect on morphological changes in colistin-susceptible Acinetobacter baumannii ATCC 19606 assessed as change in average root mean squared surface roughness at mid-log phase at 0.5 ug/ml after 20 mins by atomic force microscopic analysis
Acinetobacter baumannii [8] = experiment: Effect on morphological changes in colistin-susceptible Acinetobacter baumannii ATCC 19606 assessed as change in average root mean squared surface roughness at mid-log phase at 4 ug/ml after 20 mins by atomic force microscopic analysis
Acinetobacter baumannii [9] = experiment: Effect on morphological changes in colistin-susceptible Acinetobacter baumannii ATCC 19606 assessed as change in average root mean squared surface roughness at mid-log phase at 32 ug/ml after 20 mins by atomic force microscopic analysis
Acinetobacter baumannii [10] = experiment: Effect on morphological changes in colistin-susceptible Acinetobacter baumannii ATCC 19606 assessed as change in average root mean squared surface roughness at stationary phase at 0.5 ug/ml after 20 mins by atomic force microscopic analysis
Acinetobacter baumannii [11] = experiment: Effect on morphological changes in colistin-susceptible Acinetobacter baumannii ATCC 19606 assessed as change in average root mean squared surface roughness at stationary phase at 4 ug/ml after 20 mins by atomic force microscopic analysis
Acinetobacter baumannii [12] = experiment: Effect on morphological changes in colistin-susceptible Acinetobacter baumannii ATCC 19606 assessed as change in average root mean squared surface roughness at stationary phase at 32 ug/ml after 20 mins by atomic force microscopic analysis

Question: Which results are given for COLISTIN SULFATE?
Answer: Activity (Acinetobacter baumannii [1]): 1.03 µM; Activity (Acinetobacter baumannii [2]): 0.94 µM; Activity (Acinetobacter baumannii [3]): 0.97 µM; Activity (Acinetobacter baumannii [4]): 1.63 µM; Activity (Acinetobacter baumannii [5]): 1.44 µM; Activity (Acinetobacter baumannii [6]): 1.59 µM; Activity (Acinetobacter baumannii [7]): 8.64 nm; Activity (Acinetobacter baumannii [8]): 13.5 nm; Activity (Acinetobacter baumannii [9]): 19.8 nm; Activity (Acinetobacter baumannii [10]): 7.81 nm; Activity (Acinetobacter baumannii [11]): 16.7 nm; Activity (Acinetobacter baumannii [12]): 15.3 nm
